The assay concerns the target Histamine H3 receptor (Homo sapiens, UniProt Q9Y5N1).

The chains behind the UniProt entries cited, without tags or fusion partners. Where a name states a change or a piece, a line headed by the entry shows the natural chain unless it says otherwise.
UniProt Q9Y5N1: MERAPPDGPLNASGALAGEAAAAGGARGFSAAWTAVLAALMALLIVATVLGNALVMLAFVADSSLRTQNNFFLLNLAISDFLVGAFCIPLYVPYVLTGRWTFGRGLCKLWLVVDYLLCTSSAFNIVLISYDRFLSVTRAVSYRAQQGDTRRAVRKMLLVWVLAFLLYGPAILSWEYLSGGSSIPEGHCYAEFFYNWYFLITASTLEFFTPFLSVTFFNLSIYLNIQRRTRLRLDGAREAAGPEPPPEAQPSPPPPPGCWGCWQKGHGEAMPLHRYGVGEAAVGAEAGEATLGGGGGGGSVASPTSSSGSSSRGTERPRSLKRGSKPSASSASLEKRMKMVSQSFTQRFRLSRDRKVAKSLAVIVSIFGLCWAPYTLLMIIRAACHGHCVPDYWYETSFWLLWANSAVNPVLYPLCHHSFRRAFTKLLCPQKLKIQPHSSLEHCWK

In BindingDB's records for PubMed 10347254 (R. W. Johnson Pharmaceutical Research Institute, 1999) one finds Ki data, which are given here for one compound.

In general, Ki refers to a measure of affinity in units of concentration, obtained from inhibition or displacement.

Some results are limits rather than exact numbers.

The compound `NC(=NCc1ccc(Cl)cc1)SCCCc1cnc[nH]1` [VUF 9153] yielded a Ki of over 10 µM.
